PubChem BioAssay AID1053175 (ICCB-Longwood Screening Facility, Harvard Medical School, 2014)
The entries are a selection whose mix differs from that of the whole data set. Active and inactive are the calls of the source.

experiment: antibacterial activity against Escherichia coli – OD600, primary screen (AID 1053175); conditions: Escherichia coli growth, OD600, 23 h; stronger effect = lower value

Structure (SMILES)	OD600 absorbance
CCC(=O)N(c1ccccc1)C1(COC)CCN(CCn2nnn(CC)c2=O)CC1	inactive: 0.769
CCC(=O)N(c1ccccc1)C1(COC)CCN(CCc2cccs2)CC1	inactive: 0.743
